Reference: US20110118202A1, “Molecules which Bind to the Dimerization Initiation Site (DIS) of HIV RNA, Their Synthesis and Their Applications as Drugs” (priority 2006, published 2011)

Assays:
[1] = test system: subtype F DIS of HIV-1 genomic RNA; test: In situ DMS footprinting in infected CEMx174 cells and virions, subtype F DIS; details: infected cells and viral particles; 3 mM aminoglycoside in culture
[2] = test system: subtype A DIS kissing-loop complex (23-mer RNA); test: Lead(II)-induced cleavage of the DIS loop, 23-mer RNA (footprinting); format: binding, HIV-1; details: FIG. 21
Method: Materials and Methods: Chemical footprinting experiments were performed on a 23-mer subtype A SL1 RNA or on RNA1-615, which corresponds to nucleotides 1-615 of HIV-1 Mal genomic RNA (Ennifar et al., J. Biol. Chem. 2003 278:2723-2730). Chemical modification was carried out either with dimethyl sulfate (DMS, Fluka) to test the accessibility of N1-A and N3-C positions or with lead acetate (Merck), which selectivity cleaves the subtype A DIS loop between the first and second nucleotides.
The binding of aminoglycosides to DIS can be detected through several biochemical methods: it induces protection toward chemical modification with dimethyl sulfate (DMS) or toward a specific cleavage in the subtype A promoted by lead (II); it also induces slower migration on non-denaturated gel.
At this stage, it was unclear if this class of compound is able to bind to the DIS kissing-loop complex. To compare binding of 4,5-disubstituted and 4,6-disubstituted DOS, a 23-mer RNA corresponding to the subtype A DIS, which was allowed to dimerize in conditions permitting crystallization of the kissing-loop complex, was used. As previously shown, lead (II) induced a specific cleavage in the subtype A DIS loop that is sensitive to the binding of aminoglycoside (FIG. 21).

[3] = test system: subtype F kissing-loop complex; test: DMS footprinting, subtype F DIS in the context of RNA1-615; format: binding, HIV-1

For `NC[C@@H]1O[C@H](O[C@H]2[C@@H](O)[C@H](O[C@@H]3[C@@H](O)[C@H](N)C[C@H](N)[C@H]3O[C@H]3O[C@H](CO)[C@@H](O)[C@H](O)[C@H]3N)O[C@@H]2CO)[C@H](N)[C@@H](O)[C@@H]1O` [paromomycin], the “reduction of alkylation (DMS) of A280 of the subtype F DIS” value [1] was “more than two-fold”, the “inhibition of lead-induced cleavage of the DIS loop, relative efficiency” value [2] was “equally inhibited” and the “binding to the subtype F kissing-loop complex by DMS footprinting” value [3] was “efficiently bound”.
